High-throughput results from PubChem BioAssay.
Rows were chosen to be rich in hits. Some 1.2% of all compounds tested hit in one or more screens of this group.
miR122 inh = miR-122 Renilla sensor signal increase in Huh7, primary screen, miR-122 inhibitor project, cell-based, single point, plate reader; 0.3% of 340,000 active; activation (reporter increase), % at 12.5 µM; Huh7 miR-122 Renilla luciferase sensor, 48 h; neutral wells = 0, positive control = 100; AID 602342, 2012;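 active means mean replicate activation score at least 90 and every replicate individually at or above 90; inconclusive means only one of the two criteria met; inactive means neither criterion met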;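 further: higher luciferase means less miR-122 activity so hits act as miR-122 inhibitors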
Statin myotox sup = suppressors of statin myotoxicity in C2C12 myotubes, primary screen, cell-based, single point, plate reader; AID 602340, 2012; rescue of ATP level, % at 7.49 µM; 0.78% of 330,000 active; C2C12 myotubes + simvastatin, ATP luminescence, 48 h; scaled: DMSO 0, geranylgeraniol control 100;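 active means mean ATP rescue above about 67%, or every replicate alone reaching that limit, limit read from the data, passing the limit was not always enough; inconclusive means no clear call, values can overlap the other calls; inactive means mean under the limit and some replicate under it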;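 further: myotubes were challenged with 10 µM simvastatin during compound exposure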
Cneo AK release = Cryptococcus neoformans cell lysis inducers, primary screen, AK release luminescence, single concentration. C. neoformans lysis, adenylate kinase release luminescence, 4 h; normalised: neutral wells 0, clomiphene wells 100. lysis activity, % at 15 µM. 0.2% of 360,000 active;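 active means mean lysis activity across replicates of at least 80%, whatever share of replicates individually reach that level; inactive means mean lysis activity below 80%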
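Material: C. neoformans cells; Schedule: 4 h static compound exposure, 37 °C, read 1 h post-reagent; Measured by: adenylate kinase release luminescence; Read-out: signal increase indicating cell lysis; Controls: Clomiphene as positive lysis control.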
UUG fidelity = alters start codon recognition fidelity in yeast. S. cerevisiae UUG-firefly luciferase reporter, luminescence/redox ratio. AID 602363. activity score, % at 18.7 µM. hit rate 0.13% among 350,000;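 active = replicate mean at a twofold rise or more, about +100% in these data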;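 note: firefly luciferase made from a UUG start codon reports start codon fidelity; reporter light over untreated wells divided by growth signal over untreated wells; some hits fall short of that in this replicate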
Large screens that a line does not name were inactive; ! = a repeat was not active.

COc1ccc(CC(C)N2CCN(Cc3ccccc3)CC2)c(OC)c1 (centres undefined)	Statin myotox sup 96
C[C@H](CO)N1C[C@H](C)[C@H](CN(C)C(=O)Nc2ccc(F)cc2)Oc2ccc(NC(=O)Cc3ccccc3)cc2CC1=O	none
C[C@@H]1CN([C@@H](C)CO)C(=O)c2cc(-c3ccccc3)cnc2O[C@@H]1CN(C)C(=O)c1ccccn1	none
Cc1ccc(S(=O)(=O)N(C)C[C@@H]2Oc3ncc(-c4ccccc4)cc3C(=O)N([C@@H](C)CO)C[C@@H]2C)cc1	none
CCN1C(=O)c2cccc3c(S(=O)(=O)NCCc4c[nH]c5ccccc45)ccc1c23	miR122 inh 498
C=CCn1c(SCC(=O)NC2CCCC2)nc2scc(-c3ccco3)c2c1=O	Statin myotox sup 116
C=C1CC(C)OC(c2ccccc2OCC(O)CN2CCCCC2)C1 (centres undefined)	Statin myotox sup 115
OC(COc1cccc2ccccc12)CN1CCCC1 (centres undefined)	none
Cc1noc(C)c1NC(=O)N(C)C[C@H]1OCCCC[C@@H](C)Oc2ccc(NC(=O)Cc3ccccc3)cc2C(=O)N([C@@H](C)CO)C[C@H]1C	none (no result: Statin myotox sup)
Cc1ccc(C)c(S(=O)(=O)Nc2ccc(C(=O)N3CCCCC3)cc2)c1	miR122 inh 109
Cc1ccc(C)c(S(=O)(=O)NCc2ccc(C(=O)N3CCCCC3C)cc2)c1 (centres undefined)	Statin myotox sup 114
Cc1ccc(C)c(S(=O)(=O)Nc2ccc(C(=O)N3CCOCC3)cc2)c1	miR122 inh inconclusive
CO[C@H]1CN(C)C(=O)c2cc(NS(=O)(=O)c3ccccc3)ccc2OC[C@H](C)N(Cc2cccnc2)C[C@@H]1C	none (no result: miR122 inh)
CCCNC(=O)Cc1c(O)c2ccccc2[nH]c1=O	Statin myotox sup 108 (no result: Cneo AK release, UUG fidelity)
O=C(Cc1c(O)c2ccccc2[nH]c1=O)NCc1ccccc1F	none
CC=Cc1ccc2n(c1=O)C[C@H]1[C@H](CO)[C@@H](C(=O)NCc3ccccc3)N(Cc3cncnc3)[C@@H]21 (mixture of isomers)	none
CNC[C@@H]1Oc2ccc(NC(=O)Cc3cn(C)c4ccccc34)cc2CC(=O)N([C@H](C)CO)C[C@@H]1C	none
C[C@H]1CN([C@@H](C)CO)C(=O)Cc2cc(NC(=O)Cc3cn(C)c4ccccc34)ccc2O[C@H]1CN(C)Cc1ccc(Cl)c(Cl)c1	none
C[C@H](CO)N1C[C@H](C)[C@@H](CN(C)Cc2ccc(Cl)c(Cl)c2)Oc2ccc(NC(=O)Cc3cn(C)c4ccccc34)cc2CC1=O	Statin myotox sup 127
C[C@H](CO)N1C[C@H](C)[C@@H](CN(C)Cc2ccc3c(c2)OCO3)Oc2ccc(NC(=O)Cc3cn(C)c4ccccc34)cc2CC1=O	none
C[C@@H]1CN([C@H](C)CO)C(=O)Cc2cc(NC(=O)Cc3cn(C)c4ccccc34)ccc2O[C@H]1CN(C)Cc1ccc2c(c1)OCO2	Statin myotox sup 79
CNC[C@H]1Oc2ccc(NC(=O)Cc3cn(C)c4ccccc34)cc2CC(=O)N([C@@H](C)CO)C[C@H]1C	Cneo AK release 83!
C[C@@H]1CN([C@@H](C)CO)C(=O)Cc2cc(NC(=O)Nc3cccc4ccccc34)ccc2O[C@@H]1CN(C)S(=O)(=O)c1cccs1	Cneo AK release 95
C[C@@H]1CN([C@@H](C)CO)C(=O)Cc2cc(NC(=O)Nc3cccc4ccccc34)ccc2O[C@@H]1CN(C)S(=O)(=O)c1ccc(Cl)cc1	Statin myotox sup 95
C[C@H]1CN([C@@H](C)CO)C(=O)Cc2cc(NC(=O)Nc3cccc4ccccc34)ccc2O[C@@H]1CN(C)S(=O)(=O)c1cccs1	none
Cc1noc(C)c1NC(=O)Nc1ccc2c(c1)C(=O)N([C@H](C)CO)C[C@@H](C)[C@H](CN(C)C(=O)NC1CCCCC1)O2	none
COc1cc(NS(=O)(=O)c2ccc3c(c2)C(C)(C)C(=O)N3C)cc(OC)c1	miR122 inh 98
COc1ccc(CNS(=O)(=O)c2ccc3c(c2)C(C)(C)C(=O)N3C)cc1	none
C[C@H](CO)N1C[C@H](C)[C@@H](CN(C)S(=O)(=O)c2cccc(F)c2)OCc2ccccc2-c2ccccc2C1=O	none (no result: miR122 inh, Cneo AK release, UUG fidelity)
COc1ccc(OC)c(S(=O)(=O)Nc2ccc(C(C)=O)cc2)c1	miR122 inh 100
COc1ccc(NS(=O)(=O)c2cc(NC(=O)c3ccc(F)cc3)ccc2OC)cc1	miR122 inh 108
